Tested on: dulcitol accumulation
Experiment: Galactosemic rats, % lowering of dulcitol (galactitol) accumulation in vivo
Parameters: species or system Sprague-Dawley rats
Conditions: diaphragm, 9 mg/kg, 4 days
Source text: Such experiments are exemplified hereinbelow after the listing of the following general comments pertaining to these experiments:
(a) Four or more groups of six male rats, 50-70 g, Sprague-Dawley strain, were used. The first group, the control group, was fed a mixture of laboratory chow (rodent Laboratory Chow, Purina) and glucose at 20% (w/w %) concentration. […] The test compound was either admixed to the diet or administered by gavage. In experiments involving compound administration in the diet, the average dose administered was calculated from the actual food intake of the animals in each group. The concentration of galactose in the diet of the treated groups was the same as that for the untreated galactosemic group.
(b) After four days, the animals were killed by decapitation. The eyeballs were removed and punctured with a razor blade; the freed lenses were rolled gently on filter paper and weighed. The sciatic nerves were dissected as completely as possible and weighed. Both tissues when frozen can be kept up to two weeks before being analyzed for galactitol.
Only two minor reagent changes were made: (a) the rinsing mixture was an aqueous 5% (w/v) trichloroacetic acid solution and (b) the stock solution was prepared by dissolving 25 mg of dulcitol in 100 mL of an aqueous trichloroacetic acid solution. […]

## COc1ccc2c(C(=S)N(C)CC(=O)O)cccc2c1C(F)(F)F [Tolrestat, N-[[6-methoxy-5-(trifluoromethyl)-1-naphthalenyl]thioxo-methyl]-N-methylglycine, reference compound]
  % Lowering dulcitol accumulation IN VIVO, D: 87%

Reference: US4820727A, “N-acyl-N-naphthoylglycines as aldose reductase inhibitors” (American Home Products Corporation, priority 1987, dated 1989)
